Earlier results in patent publication US12484575B2, “Mosquito egg cryopreservation” (Sanaria Inc., priority 2019, dated 2025).

System: An. gambiae embryos
Settings: used as permeabilization reagents; cited from earlier work

## butanol
  Toxicity to embryos: extremely toxic to the embryos
